Experimental data from ChEMBL document CHEMBL1132575 (J Med Chem, 1999).

The chains behind the UniProt entries cited, without tags or fusion partners.
UniProt P28222, whole entry: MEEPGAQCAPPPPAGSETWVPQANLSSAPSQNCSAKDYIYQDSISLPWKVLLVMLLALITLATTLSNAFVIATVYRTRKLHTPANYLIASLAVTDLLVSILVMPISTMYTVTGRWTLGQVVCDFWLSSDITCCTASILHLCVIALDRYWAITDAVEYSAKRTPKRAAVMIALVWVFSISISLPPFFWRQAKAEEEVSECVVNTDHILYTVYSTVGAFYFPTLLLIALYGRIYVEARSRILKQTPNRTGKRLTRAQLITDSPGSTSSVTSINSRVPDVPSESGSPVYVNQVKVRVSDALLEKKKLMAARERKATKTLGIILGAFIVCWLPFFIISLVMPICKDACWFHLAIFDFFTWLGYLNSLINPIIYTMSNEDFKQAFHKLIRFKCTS

Target: 5-hydroxytryptamine receptor 1B (Homo sapiens, UniProt P28222)
Assay: In vitro receptor binding affinity for cloned human 5-hydroxytryptamine 1B receptor

- pKi: 7.99
SMILES: CN[C@@H]1CCc2[nH]c3ccc(C(N)=O)cc3c2C1 [FROVATRIPTAN]

pKi: −log10 of the molar value.
